Measurements from patent US8337447B2, “Device for delivery of antifibrotic agents and method” (priority 2006, dated 2012).

Tested on: human conjunctival fibroblasts
Experiment: Polymer cytotoxicity in vitro, toluidine blue staining after 7 days of culture
Assay type: cell-based
Conditions: 8 mm disk in 60 mm dish, 7 days in culture

## CO[C@@]12[C@H](COC(N)=O)C3=C(C(=O)C(C)=C(N)C3=O)N1C[C@@H]1N[C@@H]12 [MMC, mitomycin C]
  effect on cell growth / cytotoxicity: no additional cytotoxic effect; also recorded: inhibited cell proliferation in a dose-dependent fashion

Entries after “also recorded” stand apart in the source; their conditions may differ.
